Read-outs that look alike come from different tables or passages of the source.
Assays:
[1] = test system: rats trained to self-administer a 10% (w/v) ethanol solution; test: Operant oral ethanol self-administration; settings: for ED50: Rattus norvegicus, po, read-out: ED50, inhibition of alcohol self-administration
[2] = target: T1, NOP (nociceptin) receptor (Homo sapiens, UniProt P41146); test: Inhibition of basal [35S]GTPγS binding (inverse agonism), NOP; format: biochemical; parameters: FLAG; expressed in transfected cells; settings: read-out: Emax, NOP, inhibition of basal [35S]GTPγS binding
[3] = target: T1, NOP (nociceptin) receptor
CYP2D6 = CYP2D6 (Homo sapiens, UniProt P10635); test: CYP inhibition, CYP2D6 (Vivid Blue substrate); settings: 10 μM test compound; ND = no detectable inhibition
[4] = test system: rats trained to orally self-administer a 0.025% saccharin solution; test: Operant oral saccharin self-administration (control); settings: dose 25 μg/kg, rat
κ-opioid receptor [5] = target: T2, κ-opioid receptor (Mus musculus, UniProt P33534); test: biochemical; parameters: species or system human; settings: for EC50: read-out: EC50, κ, stimulation of [35S]GTPγS binding
T2 construct: FLAG; expressed in transfected cells

Protein sequences, listed by entry. Tags and fused reporters are not part of them. Lines headed by an entry give the natural chain unless they say otherwise; changes in a name come on top.
UniProt P41146: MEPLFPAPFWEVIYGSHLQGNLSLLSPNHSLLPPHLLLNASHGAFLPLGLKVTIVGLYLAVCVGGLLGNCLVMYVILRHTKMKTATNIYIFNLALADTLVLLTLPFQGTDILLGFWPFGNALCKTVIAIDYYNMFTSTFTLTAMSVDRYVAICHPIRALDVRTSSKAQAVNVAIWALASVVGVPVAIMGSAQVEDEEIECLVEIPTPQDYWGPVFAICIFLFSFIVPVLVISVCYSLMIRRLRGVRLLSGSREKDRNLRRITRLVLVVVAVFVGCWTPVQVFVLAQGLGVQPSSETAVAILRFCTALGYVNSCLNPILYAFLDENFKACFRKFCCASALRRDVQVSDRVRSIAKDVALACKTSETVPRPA
UniProt P10635, whole entry: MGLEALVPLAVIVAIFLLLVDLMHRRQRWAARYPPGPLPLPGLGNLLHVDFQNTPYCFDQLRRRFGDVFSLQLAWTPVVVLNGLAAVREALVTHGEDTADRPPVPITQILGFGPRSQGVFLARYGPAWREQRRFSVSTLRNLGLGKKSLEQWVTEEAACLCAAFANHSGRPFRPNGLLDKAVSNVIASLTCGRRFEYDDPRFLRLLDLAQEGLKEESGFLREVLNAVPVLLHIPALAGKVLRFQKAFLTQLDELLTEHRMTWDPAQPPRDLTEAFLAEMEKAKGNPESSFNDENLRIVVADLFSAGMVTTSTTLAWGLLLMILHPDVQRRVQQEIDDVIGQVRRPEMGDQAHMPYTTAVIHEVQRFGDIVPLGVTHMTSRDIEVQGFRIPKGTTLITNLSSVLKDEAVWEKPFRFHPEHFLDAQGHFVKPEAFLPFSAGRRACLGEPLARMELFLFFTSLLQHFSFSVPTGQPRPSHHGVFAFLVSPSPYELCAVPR
UniProt P33534: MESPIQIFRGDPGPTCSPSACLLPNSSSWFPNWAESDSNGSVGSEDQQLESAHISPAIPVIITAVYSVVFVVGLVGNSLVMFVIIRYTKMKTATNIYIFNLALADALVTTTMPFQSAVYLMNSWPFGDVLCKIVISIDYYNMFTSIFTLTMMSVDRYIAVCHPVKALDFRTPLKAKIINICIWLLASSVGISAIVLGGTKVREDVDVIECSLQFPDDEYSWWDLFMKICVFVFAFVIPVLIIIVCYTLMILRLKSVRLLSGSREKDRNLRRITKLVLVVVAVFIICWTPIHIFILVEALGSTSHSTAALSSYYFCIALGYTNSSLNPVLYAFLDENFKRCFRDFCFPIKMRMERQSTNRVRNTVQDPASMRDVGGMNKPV
UniProt P35372, whole entry: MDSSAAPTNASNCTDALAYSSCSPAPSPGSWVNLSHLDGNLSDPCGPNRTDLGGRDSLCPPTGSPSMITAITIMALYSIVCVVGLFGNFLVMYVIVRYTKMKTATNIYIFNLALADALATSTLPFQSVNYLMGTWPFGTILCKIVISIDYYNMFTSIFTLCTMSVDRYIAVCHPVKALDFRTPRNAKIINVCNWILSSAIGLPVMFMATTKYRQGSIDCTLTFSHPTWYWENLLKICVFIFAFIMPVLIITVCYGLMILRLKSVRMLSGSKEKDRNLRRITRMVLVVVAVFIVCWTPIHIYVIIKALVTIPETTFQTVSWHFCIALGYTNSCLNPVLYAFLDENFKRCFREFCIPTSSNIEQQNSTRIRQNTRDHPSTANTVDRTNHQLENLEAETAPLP
UniProt P32300, whole entry: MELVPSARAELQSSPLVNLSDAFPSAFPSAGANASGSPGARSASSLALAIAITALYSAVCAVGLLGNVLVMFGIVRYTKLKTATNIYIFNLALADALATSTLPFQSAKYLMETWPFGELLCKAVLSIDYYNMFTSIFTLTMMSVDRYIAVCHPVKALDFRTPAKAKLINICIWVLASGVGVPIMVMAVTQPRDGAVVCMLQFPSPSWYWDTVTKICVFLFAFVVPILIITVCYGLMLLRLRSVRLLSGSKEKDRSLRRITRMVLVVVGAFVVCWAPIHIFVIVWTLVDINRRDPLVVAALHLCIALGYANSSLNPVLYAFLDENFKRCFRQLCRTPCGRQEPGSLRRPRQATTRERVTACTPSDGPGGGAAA
UniProt P42866, whole entry: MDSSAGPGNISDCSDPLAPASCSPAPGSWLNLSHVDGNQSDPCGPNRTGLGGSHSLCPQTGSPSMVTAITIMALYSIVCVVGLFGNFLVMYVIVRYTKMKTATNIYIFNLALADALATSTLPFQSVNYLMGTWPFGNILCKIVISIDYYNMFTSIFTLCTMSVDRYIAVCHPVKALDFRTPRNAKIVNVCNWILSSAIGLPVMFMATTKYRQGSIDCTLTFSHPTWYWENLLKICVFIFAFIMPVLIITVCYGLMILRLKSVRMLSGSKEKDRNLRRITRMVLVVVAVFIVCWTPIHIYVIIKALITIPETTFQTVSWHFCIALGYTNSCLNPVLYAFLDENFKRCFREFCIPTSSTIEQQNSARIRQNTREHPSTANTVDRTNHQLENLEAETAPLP

μ-opioid receptor [6] = target: T3, μ-opioid receptor (Homo sapiens, UniProt P35372); test: biochemical; format: binding; settings: Ki (nM) ± SEM, Table 1a, two determinations
T3 construct: expressed in transfected cells; host or cells: CHO cells

δ-opioid receptor [7] = target: T4, δ-opioid receptor (Mus musculus, UniProt P32300); test: biochemical; parameters: species or system human; settings: for EC50: read-out: EC50, δ, inhibition of basal [35S]GTPγS binding; for Emax: read-out: Emax, δ, inhibition of basal [35S]GTPγS binding
T4 construct: hemagglutinin (HA); expressed in transfected cells

δ-opioid receptor [8] = target: T4, δ-opioid receptor; test: biochemical; format: biochemical, human; settings: for EC50: read-out: EC50, δ, stimulation of [35S]GTPγS binding; for Emax: read-out: Emax, δ, stimulation of [35S]GTPγS binding
μ-opioid receptor [9] = target: T5, μ-opioid receptor (Mus musculus, UniProt P42866); test: biochemical; format: biochemical, human; parameters: FLAG; expressed in transfected cells; settings: for EC50: read-out: EC50, μ, stimulation of [35S]GTPγS binding; for Emax: read-out: Emax, μ, stimulation of [35S]GTPγS binding, percentage of basal [35S]GTPγS binding stimulation
κ-opioid receptor [10] = test system: T6, κ-opioid receptor; test: biochemical; parameters: species or system human; settings: read-out: Emax, κ, inhibition of basal [35S]GTPγS binding
T6 construct: FLAG; expressed in transfected cells

κ-opioid receptor [11] = target: T2, κ-opioid receptor; test: biochemical; parameters: species or system human; settings: read-out: EC50, κ, inhibition of basal [35S]GTPγS binding
μ-opioid receptor [12] = target: T5, μ-opioid receptor; test: biochemical
μ-opioid receptor [13] = target: T5, μ-opioid receptor; test: biochemical; parameters: FLAG; expressed in transfected cells; species or system human; settings: for Emax: read-out: Emax, μ, inhibition of basal [35S]GTPγS binding
κ-opioid receptor [14] = target: T2, κ-opioid receptor; test: biochemical; parameters: species or system human
δ-opioid receptor [15] = target: T4, δ-opioid receptor; test: biochemical; parameters: species or system human
[16] = read-out: Emax, κ, stimulation of [35S]GTPγS binding, percentage of basal [35S]GTPγS binding stimulation

SMILES | ED50 [1] [mg/kg] | Ki (μ-opioid receptor [6]) [nM] | EC50 (δ-opioid receptor [8]) [nM] | EC50 (μ-opioid receptor [9]) [nM] | Emax (κ-opioid receptor [5]; [16]) [%] | Emax (δ-opioid receptor [7]) [%] | Emax (κ-opioid receptor [10]) [%] | Emax (μ-opioid receptor [9]) [%] | further results
O=C(N[C@@H]1CC[C@@]2(O)[C@H]3Cc4ccc(O)c5c4[C@@]2(CCN3CC2CC2)[C@H]1O5)c1ccc(Cl)cc1 [Compound 10, 6-β-(4′-Chloro)benzamido-14-hydroxy-17-(cyclopropylmethyl)nordesmorphine] | 0.5 | – | – | – | – | – | – | – | Emax [2]: 320 ± 6.8%; Emax [3]: 0%
C=C1CC[C@@]2(O)[C@H]3Cc4ccc(O)c5c4[C@@]2(CCN3CC2CC2)[C@H]1O5 [Compound 1b, nalmefene, reference compound] | – | – | – | – | – | – | – | – | Percent Inhibition CYP2D6 (CYP2D6): 31%; Number of saccharin self-administrations in one hour [4]: 7.3 ± 1.9
O=C(N[C@@H]1CC[C@@]2(O)[C@H]3Cc4ccc(O)c5c4[C@@]2(CCN3CC2CC2)[C@H]1O5)c1ccc(Br)cc1 [Compound 6, 6-β-(4′-Bromo)benzamido-14-hydroxy-17-(cyclopropylmethyl) nordesmorphine] | 0.042 | 0.3 to 1.09 | 0.2 ± 0.1 | 4.5 ± 0.5 | – | – | – | – | EC50 (κ-opioid receptor [5]): 0.1 ± 0.1 nM; EC50 (δ-opioid receptor [7]): 66 ± 1.8 nM
CC(C)(C)c1ccc(C(=O)N[C@@H]2CC[C@@]3(O)[C@H]4Cc5ccc(O)c6c5[C@@]3(CCN4CC3CC3)[C@H]2O6)cc1 [Compound 8, 6-(4′-t-Butyl)benzamido-14-hydroxy-17-(cyclopropylmethyl)nordesmorphine] | 0.05 | 0.3 to 1.09 | – | – | 0 | 28 ± 9.1 | 60 ± 2.6 | 0 | EC50 (δ-opioid receptor [7]): 0.3 ± 0.1 nM; EC50 (κ-opioid receptor [11]): 0.4 ± 1.2 nM; Emax (δ-opioid receptor [8]): 0%
Cc1ccc(C(=O)N[C@@H]2CC[C@@]3(O)[C@H]4Cc5ccc(O)c6c5[C@@]3(CCN4CC3CC3)[C@H]2O6)cc1 [Compound 4, 6-β-(4′-Methyl)benzamido-14-hydroxy-17-(cyclopropylmethyl) nordesmorphine] | 0.25 | 0.3 to 1.09 | 0.14 ± 0.1 | – | 0 | – | 20 ± 1.2 | 0 | Ki (μ-opioid receptor [12]): 6.2 ± 1.9 nM; EC50 (μ-opioid receptor [13]; read-out: EC50, μ, inhibition of basal [35S]GTPγS binding): 8.9 ± 0.2 nM; EC50 (κ-opioid receptor [11]): 2.4 ± 0.4 nM; Ki (κ-opioid receptor [14]): 0.015 ± 0.0014 nM; Ki (δ-opioid receptor [15]): 0.1 ± 0.02 nM; Emax (δ-opioid receptor [8]): 10 ± 9.6%
O=C(N[C@@H]1CC[C@@]2(O)[C@H]3Cc4ccc(O)c5c4[C@@]2(CCN3CC2CC2)[C@H]1O5)c1ccc(I)cc1 [Compound 7, 6-β-(4′-Iodo)benzamido-14-hydroxy-17-(cyclopropylmethyl)nordesmorphine] | 0.038 | 0.3 to 1.09 | 5.1 ± 2.9 | 8.8 ± 1.7 | 28 ± 3.1 | 0 | 0 | 53 ± 2.8 | EC50 (κ-opioid receptor [5]): 29 ± 3.4 nM; Emax (κ-opioid receptor [5]; read-out: Emax, κ, stimulation of [35S]GTPγS binding): 28 to 63%; Emax (μ-opioid receptor [13]): 0%; Number of ethanol self-administrations ([1]; dose 25 μg/kg s.c., rat): 24.7 ± 3.7^; Emax, δ, stimulation of [35S]GTPγS binding (δ-opioid receptor [8]): 45 ± 6.2%
O=C(N[C@@H]1CC[C@@]2(O)[C@H]3Cc4ccc(O)c5c4[C@@]2(CCN3CC2CC2)[C@H]1O5)c1ccc(C(F)(F)F)cc1 [Compound 5, 6-β-(4′-Trifluoromethyl)benzamido-14-hydroxy-17-(cyclopropylmethyl)nordesmorphine] | 0.019 | 0.3 to 1.09 | – | 16 ± 2.1 | – | 0 | 0 | 63 ± 14 | Emax (μ-opioid receptor [13]): 0%
